## Properties, as collected for the OPERA models

Data: OPERA 2.9 data sets, kmansouri/OPERA on GitHub.

The melting point is given in degrees Celsius.
Boiling points are in °C, nominally at 760 mmHg.
The octanol-water partition coefficient is given as log10; larger values mean a more lipophilic compound.
Solubility in water is on a log10 molar scale (set defined at 25 °C).
Vapor pressures (log10 mmHg) refer to near room temperature, 15 to 30 °C; higher is more volatile.
Henry's law constant (air-water partitioning) is log10 of atm·m3/mol, nominally at 25 °C.
fu is the fraction unbound in human plasma, from 0 to 1.
Clint is human hepatic intrinsic clearance in µL/min per million cells; 0 means that no clearance was seen.
"–" marks a cell with nothing listed here.

compound,MP (°C),BP (°C),logP,log solubility (log10 mol/L),log vapor pressure (log10 mmHg),log Henry constant (log10 atm·m3/mol),fraction unbound,Clint (µL/min/10^6 cells)
CC(=O)O.Nc1ccc(/N=N/c2ccccc2)c(N)c1,–,–,1.1,–,-6.921,–,–,–
O=[N+]([O-])c1ccc(Cl)cc1O,–,–,–,-2.637,-1.222,–,–,–
CCC(C)(C)c1cc(O)c(C(C)(C)CC)cc1O,–,–,–,–,–,–,0.0166,11.4
CCCCN(CCCC)C(=S)SCSC(=S)N(CCCC)CCCC,–,–,–,-6.241,-9.953,–,–,–
CCCCCCCCCCCCCCCCCCO[Si](C)(C)C,13.9,–,4.1,-6.836,–,–,–,–
Clc1ccc(Oc2cc(Cl)c(Cl)c(Cl)c2Cl)cc1Cl,135,–,–,-8.78,–,–,–,–
CC(CO)CCCC1CCCCC1 (stereo unspecified),-32.5,267.5,5.3,-4.021,-2.782,–,–,–
CCCCCCCCC=CCCCCCCCC(=O)OCCCCCCCCCCCC,6,–,–,-6.955,–,–,–,–
O=C(OCCOC(=O)c1ccccc1)c1ccccc1,–,365,3.75,-5.07,-7.377,–,–,–
CC1(C)COC(C)(CCCc2ccc(Cl)cc2)N1C(=O)n1ccnc1.CC1(C)COC(C)(CCCc2ccc(Cl)cc2)N1C(=O)n1ccnc1.O=C(O)/C=C/C(=O)O (stereo partly drawn),124,–,–,–,-7.39,–,–,–
O=C(c1ccccc1Cl)C1CCCC1,–,–,3.7,-4.018,-2.844,–,–,–
CC(=O)NC(Cc1c[nH]c2ccccc12)C(=O)O (stereo unspecified),–,–,-1.7,–,-9.319,–,–,–
CCCC(C)(C)C(=O)Nc1ccc(Cl)cc1,–,–,–,–,-5.535,-7.722,–,–
NCCCOCCOCCOCCCN.O=C(O)/C=C\C(=O)O.O=C(O)/C=C\C(=O)O,–,–,-2.6,–,-5.941,–,–,–
C[C@]12CC[C@H]3[C@@H]([C@H]4C[C@H]4[C@]4(O)C[C@@H](O)CC[C@]34C)[C@@H]1[C@@H]1C[C@@H]1[C@@]2(O)C#CCO,–,–,1.12,-2.46,–,–,–,–
CCCCCC1(C)CCC(C)(C)C1=O (stereo unspecified),–,–,4.7,-4.017,-1.161,–,–,–
COc1cccc2c1C(=O)c1c(O)c3c(c(O)c1C2=O)C[C@@](O)(C(C)=O)C[C@@H]3O[C@H]1C[C@H](N)[C@H](O)[C@H](C)O1,–,–,–,–,-14.03,–,0.03,–
N=C(N)NCC1COC2(CCCCC2)O1 (stereo unspecified),–,–,0.6,-2.043,–,–,–,–
CCC[C@H]1CC[C@H](c2ccc(-c3ccc(-c4cc(F)c(OC(F)(F)F)c(F)c4)c(F)c3)cc2)CC1,–,468,–,-7.391,-9.031,–,–,–
COC1=CC(=O)C[C@@H](C)[C@]12Oc1c(Cl)c(OC)cc(OC)c1C2=O,–,–,–,–,-8.018,–,0.2,–
C1CN(SSN2CCOCC2)CCO1,–,–,2.58,-3.26,-4.523,–,–,–
CC(=O)OCCC1=CC[C@H]2C[C@@H]1C2(C)C,–,–,4.24,-4.05,-1.853,–,–,–
Cc1ccc(Nc2ccc(O)c3c2C(=O)c2ccccc2C3=O)c(S(=O)(=O)[O-])c1.[Na+],–,–,-0.66,-2.402,–,–,–,–
CCOC(=O)C(C)(C)Oc1ccc(Cl)cc1,20.35,–,3.3,-3.917,-2.595,–,–,868
O=C(/C=C/c1ccc(O)c(O)c1)N[C@@H](Cc1ccc(O)cc1)C(=O)O,–,–,-2.04,-2.934,–,–,–,–

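The OPERA project collected these measurements from public sources as training and test data for property models. One number stands for a compound and property, with no spread given. Method and conditions are not stated for these values. A value may pool stereoisomers or salt forms, and the file does not say which form was measured. Some upstream entries may be estimates or bounds without being marked so.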